pEC50, pIC50: −log10 of the molar value. Like-named read-outs stand apart in the source and are kept apart here.
How the values were obtained:
[1] = target: melanocortin 1 receptor (MC1R) (Homo sapiens, UniProt Q01726); assay: cAMP accumulation assay (HTRF), agonist and/or antagonist activity at MC1R (Example 1, Table 11); conditions: dose-response; for pEC50: cAMP
[2] = target: melanocortin 5 receptor (MC5R) (Homo sapiens, UniProt P33032); assay: cAMP accumulation assay (HTRF), agonist and/or antagonist activity at MC5R (Example 1, Table 14); conditions: dose-response against MC5R
[3] = target: human melanocortin 3 receptor (MC3R) (Homo sapiens, UniProt P41968); assay: cAMP accumulation assay (HTRF), antagonist and/or agonist activity at MC3R (Example 1, Table 12, FIGS. 1-4)
[4] = target: human melanocortin 4 receptor (MC4R) (Homo sapiens, UniProt P32245); assay: cAMP accumulation assay (HTRF), antagonist and/or agonist activity at MC4R (Example 1, Table 13, FIGS. 5-8); conditions: for Top (%): top of curve
[5] = MC3R, antagonist activity, dose-response
[6] = MC3R, antagonist activity, dose-response, cAMP
[7] = Table 13, dose-response against MC4R, cAMP
[8] = read-out: IC50 (antagonist activity on MC4R), cAMP levels, antagonist

Protein sequences, listed by entry. Tags and fused reporters are not part of them.
UniProt Q01726, whole entry: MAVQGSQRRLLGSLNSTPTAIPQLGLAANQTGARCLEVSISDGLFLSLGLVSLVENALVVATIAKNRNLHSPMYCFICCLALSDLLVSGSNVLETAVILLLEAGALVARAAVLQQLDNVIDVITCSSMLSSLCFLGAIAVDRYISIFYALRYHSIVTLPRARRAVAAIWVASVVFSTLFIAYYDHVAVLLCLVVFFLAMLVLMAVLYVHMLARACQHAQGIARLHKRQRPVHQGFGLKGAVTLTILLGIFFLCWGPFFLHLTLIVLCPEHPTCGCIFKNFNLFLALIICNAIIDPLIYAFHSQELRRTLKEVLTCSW
UniProt P33032, whole entry: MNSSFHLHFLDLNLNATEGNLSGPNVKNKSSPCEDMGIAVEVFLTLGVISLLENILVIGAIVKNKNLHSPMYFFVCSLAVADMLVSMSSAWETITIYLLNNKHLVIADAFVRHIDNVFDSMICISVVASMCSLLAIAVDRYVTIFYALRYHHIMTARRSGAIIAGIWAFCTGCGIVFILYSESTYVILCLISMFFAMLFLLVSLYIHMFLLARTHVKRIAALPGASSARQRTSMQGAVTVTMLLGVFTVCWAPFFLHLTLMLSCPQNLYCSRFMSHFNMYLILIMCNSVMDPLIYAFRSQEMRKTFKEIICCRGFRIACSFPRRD
UniProt P41968, whole entry: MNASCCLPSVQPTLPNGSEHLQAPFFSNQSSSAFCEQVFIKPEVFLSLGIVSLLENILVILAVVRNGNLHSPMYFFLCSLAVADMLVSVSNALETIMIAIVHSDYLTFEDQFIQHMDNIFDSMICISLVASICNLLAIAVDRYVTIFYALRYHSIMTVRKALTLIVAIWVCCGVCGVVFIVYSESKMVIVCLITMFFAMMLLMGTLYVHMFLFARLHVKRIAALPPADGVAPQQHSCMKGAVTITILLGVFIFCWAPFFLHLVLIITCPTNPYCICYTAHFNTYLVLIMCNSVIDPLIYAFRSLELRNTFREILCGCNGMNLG
UniProt P32245, whole entry: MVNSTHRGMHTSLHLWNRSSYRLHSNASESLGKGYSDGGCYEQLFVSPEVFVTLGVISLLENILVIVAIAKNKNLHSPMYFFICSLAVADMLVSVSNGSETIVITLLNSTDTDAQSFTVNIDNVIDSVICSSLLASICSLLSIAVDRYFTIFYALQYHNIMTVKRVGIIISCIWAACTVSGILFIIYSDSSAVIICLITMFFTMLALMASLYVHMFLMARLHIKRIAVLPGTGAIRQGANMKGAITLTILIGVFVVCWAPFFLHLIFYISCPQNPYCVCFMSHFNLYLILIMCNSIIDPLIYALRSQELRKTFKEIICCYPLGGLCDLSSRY

Row | Hill Coefficient [1] | Top [1] [%] | pEC50 [1] | pEC50 [2] | Hill Coefficient [2] | Top (%) ([2]; top of curve) | Hill Coefficient [3, 5] | Top [3, 5] [%] | pIC50 [3, 6] | Hill Coefficient [4, 7] | pIC50 [4, 7] | Top (%) [4, 7] [%] | pIC50 [4, 8] | pIC50 ([3]; read-out: IC50 (antagonist activity on MC3R), cAMP levels, antagonist) | Structure (SMILES)
1 | 1.12 | 101.26 | 9.42 | 8.49 | 1.19 | 101.59 | 1.10 | 100 | 6.39 | 1.53 | 7.33 | 67.13 |  |  | CCCC[C@H](NC(C)=O)C(=O)N[C@H]1CC(=O)NCCCC[C@@H](C(=O)N[C@@H](C(=O)N2CCC[C@@H]2C(N)=O)C(C)C)NC(=O)[C@@H]2CCCN2C(=O)[C@H](Cc2c[nH]c3ccccc23)NC(=O)[C@H](CCCNC(=N)N)NC(=O)[C@@H](Cc2ccc3ccccc3c2)NC(=O)[C@H](Cc2c[nH]cn2)NC1=O
2 |  |  | < 6.00 | 7.02 |  |  |  |  | 7.72 |  | < 6.00 |  |  |  | CC(=O)N1CCC[C@@H]1C(=O)N[C@H]1CC(=O)NCCCC[C@@H](C(=O)N[C@@H](C(=O)N2CCC[C@@H]2C(N)=O)C(C)C)NC(=O)[C@H](Cc2c[nH]c3ccccc23)NC(=O)[C@H](CCCNC(=N)N)NC(=O)[C@@H](Cc2ccc3ccccc3c2)NC(=O)[C@@H]2CCCN2C1=O
3 |  |  | 6.38 | 9.27 |  |  |  |  | 7.69 |  | 6.32 |  | > 5.00 |  | CC(=O)N[C@H](CS)C(=O)N[C@H]1CC(=O)NCCCC[C@@H](C(=O)N[C@@H](C(=O)N2CCC[C@@H]2C(N)=O)C(C)C)NC(=O)[C@H](Cc2c[nH]c3ccccc23)NC(=O)[C@H](CCCNC(=N)N)NC(=O)[C@@H](Cc2ccc3ccccc3c2)NC(=O)[C@@H]2CCCN2C1=O
4 |  |  | 6.35 | 8.74 |  |  |  |  | 8.58 |  | 6.17 |  |  |  | CSCC[C@@H](NC(C)=O)C(=O)N[C@H]1CC(=O)NCCCC[C@@H](C(=O)N[C@@H](C(=O)N2CCC[C@@H]2C(N)=O)C(C)C)NC(=O)[C@H](Cc2c[nH]c3ccccc23)NC(=O)[C@H](CCCNC(=N)N)NC(=O)[C@@H](Cc2ccc3ccccc3c2)NC(=O)[C@@H]2CCCN2C1=O
5 |  |  | < 6.00 | 7.35 |  |  |  |  | 6.34 |  | < 6.00 |  |  |  | CC(=O)N[C@H](CCC(N)=O)C(=O)N[C@H]1CC(=O)NCCCC[C@@H](C(=O)N[C@@H](C(=O)N2CCC[C@@H]2C(N)=O)C(C)C)NC(=O)[C@H](Cc2c[nH]c3ccccc23)NC(=O)[C@H](CCCNC(=N)N)NC(=O)[C@@H](Cc2ccc3ccccc3c2)NC(=O)[C@@H]2CCCN2C1=O
6 |  |  | 7.12 | 8.12 |  |  |  |  | 8.06 |  | 7.07 |  |  |  | CCCC[C@H](NC(C)=O)C(=O)N[C@@H]1C(=O)N2CCC[C@H]2C(=O)N[C@H](Cc2ccc3ccccc3c2)C(=O)N[C@@H](CCCNC(=N)N)C(=O)N[C@@H](Cc2c[nH]c3ccccc23)C(=O)N[C@H](C(=O)N[C@@H](C(=O)N2CCC[C@@H]2C(N)=O)C(C)C)CSSC1(C)C
7 |  |  | 6.54 | 8.82 |  |  |  |  | 7.31 |  | 6.17 |  |  |  | CCCC[C@H](NC(C)=O)C(=O)N[C@H]1CC(=O)NCCCC[C@@H](C(=O)N2CCC[C@@H]2C(=O)N[C@@H](C(=O)O)C(C)C)NC(=O)[C@H](Cc2c[nH]c3ccccc23)NC(=O)[C@H](CCCNC(=N)N)NC(=O)[C@@H](Cc2ccc3ccccc3c2)NC(=O)[C@@H]2CCCN2C1=O
8 |  |  | 7.24 | 8.85 |  |  |  |  | 8.15 |  | 6.28 |  |  |  | CCCC[C@H](NC(C)=O)C(=O)N[C@H]1CC(=O)NCCCC[C@@H](C(=O)N[C@@H](C(=O)N[C@H](CC(=O)O)C(N)=O)C(C)C)NC(=O)[C@H](Cc2c[nH]c3ccccc23)NC(=O)[C@H](CCCNC(=N)N)NC(=O)[C@@H](Cc2ccc3ccccc3c2)NC(=O)[C@@H]2CCCN2C1=O
9 |  |  | 7.57 | 7.66 |  |  |  |  | 7.04 |  | 6.59 |  | > 5.00 | > 5.00 | CCCC[C@H](NC(C)=O)C(=O)N[C@H]1CC(=O)NCCCC[C@@H](C(=O)N[C@@H](C(=O)N2CCC[C@@H]2C(N)=O)C(C)C)NC(=O)[C@H](Cc2c[nH]c3ccccc23)NC(=O)[C@H](CCCNC(=N)N)NC(=O)[C@@H](Cc2ccc3ccccc3c2)NC(=O)CNC1=O
10 |  |  | < 6.00 | 8.59 |  |  |  |  | 8.53 |  | 7.05 |  |  |  | CC(=O)N[C@H](CCCNC(=N)N)C(=O)N[C@H]1CC(=O)NCCCC[C@@H](C(=O)N[C@@H](C(=O)N2CCC[C@@H]2C(N)=O)C(C)C)NC(=O)[C@H](Cc2c[nH]c3ccccc23)NC(=O)[C@H](CCCNC(=N)N)NC(=O)[C@@H](Cc2ccc3ccccc3c2)NC(=O)[C@@H]2CCCN2C1=O
11 |  |  | 8.46 | 9.72 |  |  |  |  | 8.80 |  | 8.22 |  |  |  | CCCC[C@H](NC(C)=O)C(=O)N[C@H]1CC(=O)NCCCC[C@@H](C(=O)N[C@@H](CCCCN)C(=O)N2CCC[C@@H]2C(N)=O)NC(=O)[C@H](Cc2c[nH]c3ccccc23)NC(=O)[C@H](CCCNC(=N)N)NC(=O)[C@@H](Cc2ccc3ccccc3c2)NC(=O)[C@@H]2CCCN2C1=O
12 |  |  | < 6.00 | 7.52 |  |  |  |  | 7.90 |  | 6.33 |  |  |  | CC(=O)NCC(=O)N[C@H]1CC(=O)NCCCC[C@@H](C(=O)N[C@@H](C(=O)N2CCC[C@@H]2C(N)=O)C(C)C)NC(=O)[C@H](Cc2c[nH]c3ccccc23)NC(=O)[C@H](CCCNC(=N)N)NC(=O)[C@@H](Cc2ccc3ccccc3c2)NC(=O)[C@@H]2CCCN2C1=O
13 |  |  | 8.33 | 9.92 |  |  |  |  | 8.94 |  | 7.82 |  |  |  | CCCC[C@H](NC(C)=O)C(=O)N[C@H]1CC(=O)NCCCC[C@@H](C(=O)N[C@@H](CC(N)=O)C(=O)N2CCC[C@@H]2C(N)=O)NC(=O)[C@H](Cc2c[nH]c3ccccc23)NC(=O)[C@H](CCCNC(=N)N)NC(=O)[C@@H](Cc2ccc3ccccc3c2)NC(=O)[C@@H]2CCCN2C1=O
14 |  |  | 6.19 | 8.35 |  |  |  |  | 8.32 |  | < 6.00 |  |  |  | CC(=O)N[C@H](Cc1ccccc1)C(=O)N[C@H]1CC(=O)NCCCC[C@@H](C(=O)N[C@@H](C(=O)N2CCC[C@@H]2C(N)=O)C(C)C)NC(=O)[C@H](Cc2c[nH]c3ccccc23)NC(=O)[C@H](CCCNC(=N)N)NC(=O)[C@@H](Cc2ccc3ccccc3c2)NC(=O)[C@@H]2CCCN2C1=O
15 |  |  | 8.40 | 10.40 |  |  |  |  | 8.98 |  | 8.00 |  |  |  | CCCC[C@H](NC(C)=O)C(=O)N[C@H]1CC(=O)NCCCC[C@@H](C(=O)N[C@H](CC(N)=O)C(=O)N2CCC[C@@H]2C(N)=O)NC(=O)[C@H](Cc2c[nH]c3ccccc23)NC(=O)[C@H](CCCNC(=N)N)NC(=O)[C@@H](Cc2ccc3ccccc3c2)NC(=O)[C@@H]2CCCN2C1=O
16 | 1.19 | 100.65 | 7.65 | 7.85 | 1.07 |  | 0.97 | 89.34 | 7.58 | 0.89 | 7.57 | 74.47 |  |  | CCCC[C@H](NC(C)=O)C(=O)N[C@H]1CC(=O)NCCCC[C@@H](C(=O)N[C@@H](C(=O)N2CCC[C@@H]2C(N)=O)C(C)C)NC(=O)[C@H](Cc2c[nH]c3ccccc23)NC(=O)[C@H](CCCNC(=N)N)NC(=O)[C@@H](Cc2ccc3ccccc3c2)NC(=O)[C@H](Cc2c[nH]cn2)NC(=O)[C@@H]2CCCN2C1=O
17 |  |  | 7.09 | 8.42 |  |  |  |  | 7.64 |  | 7.48 |  |  |  | CCCC[C@H](NC(C)=O)C(=O)N[C@H]1CC(=O)NCCCC[C@@H](C(=O)N[C@@H](C(=O)N[C@@H](C(=O)N2CCC[C@@H]2C(N)=O)C(C)C)C(C)C)NC(=O)[C@H](Cc2c[nH]c3ccccc23)NC(=O)[C@H](CCCNC(=N)N)NC(=O)[C@@H](Cc2ccc3ccccc3c2)NC(=O)[C@@H]2CCCN2C1=O
